The species named for test [1] is Homo sapiens. As to the kind of experiment: Selectivity ratio of Ki for human recombinant adenosine A3 receptor to Ki for human recombinant adenosine receptor A2a.
For test [2], the species on record is Homo sapiens. As to the kind of experiment: Selectivity ratio of Ki for human recombinant adenosine receptor A2b to Ki for human recombinant adenosine receptor A2a.

For `Cc1cc(Cn2nnc3c(-c4ccco4)nc(N)nc32)ccc1N` [VIPADENANT], the Ratio Ki stood at 773 in the test listed under Homo sapiens [1] and 48 in the test listed under Homo sapiens [2].

The values above are taken from ChEMBL document CHEMBL3259781 (J Med Chem, 2014).
